Source: patent US11116740B2, “Methods for use in support of planned supplement and food ingredient products for diagnosis and treatment of metabolic syndrome” (priority 2015, dated 2021)

Conditions: in vivo
Experimental: This study examined global metabolic profiles in six dolphins (“Group A dolphins”). The dolphins lived in netted enclosures within San Diego Bay. The dolphins started on a 100% capelin diet. Group A dolphins were fed one-third of their daily diet in the morning after their routine overnight fast and 2h postprandial, in-water, and trained blood samples were drawn (typically near 10:00 a.m.). An additional four dolphins (“Group C dolphins”) were fed the capelin diet.
Two hour post-prandial samples were collected from the dolphins at baseline (week 0) and at four time points following the switch to the modified diet: 6, 12, 18, and 24 weeks. Routine monthly samples collected from four reference dolphins that were housed in the same environment as the Group A dolphins were assessed for glucose, triglycerides, ferritin, and percent serum fatty acids.
Sample Preparation: Samples were prepared using the automated MicroLab STAR® system from Hamilton Company. Several recovery standards were added prior to the first step in the extraction process for QC purposes. Proteins were precipitated with methanol under vigorous shaking for 2 min (Glen Mills GenoGrinder 2000) followed by centrifugation. The resulting extract was divided into five fractions: two for analysis by two separate reverse phase (RP)/UPLC-MS/MS methods with positive ion mode electrospray ionization (ESI), one for analysis by RP/UPLC-MS/MS with negative ion mode ESI, one for analysis by HILIC/UPLC-MS/MS with negative ion mode ESI, and one sample was reserved. Samples were placed briefly on a TurboVap® (Zymark) to remove the organic solvent. The sample extracts were stored overnight under nitrogen before preparation for analysis.
Ultrahigh Performance Liquid Chromatography-Tandem Mass Spectroscopy (UPLC-MS/[…]): Each of four methods utilized a Waters ACQUITY ultra-performance liquid chromatography (UPLC) and a Thermo Scientific Q-Exactive high resolution/accurate mass spectrometer interfaced with a heated electrospray ionization (HESI-II) source and Orbitrap mass analyzer operated at 35,000 mass resolution. A sample extract was dried, then reconstituted in solvents compatible to each of the four methods. Each reconstitution solvent contained a series of standards at fixed concentrations to ensure injection and chromatographic consistency. A first aliquot was analyzed using acidic positive ion conditions, chromatographically optimized for more hydrophilic compounds. In this method, the extract was gradient eluted from a C18 column (Waters UPLC BEH C18-2. 1×100 mm, 1.7 μm) using water and methanol, containing 0.05% perfluoropentanoic acid (PFPA) and 0.1% formic acid (FA). A second aliquot was also analyzed using acidic positive ion conditions, however it was chromatographically optimized for more hydrophobic compounds. In this method, the extract was gradient eluted from the same afore mentioned C18 column using methanol, acetonitrile, water, 0.05% PFPA and 0.01% FA and was operated at an overall higher organic content. A third aliquot was analyzed using basic negative ion optimized conditions using a separate dedicated C 18 column. The basic extracts were gradient eluted from the column using methanol and water, however with 6.5 mM Ammonium Bicarbonate at pH 8. […] The MS analysis alternated between MS and data-dependent MSn scans using dynamic exclusion. The scan range varied slighted between methods but covered 70-1000 m/z.
Data Extraction and Compound Identification: Raw data was extracted, peak-identified and QC processed using Metabolon's hardware and software. The systems were based on a web-service platform utilizing Microsoft's .NET technologies, which ran on high-performance application servers and fiber-channel storage arrays in clusters to provide active failover and load-balancing. Compounds were identified by comparison to library entries of purified standards or recurrent unknown entities.

Row | Compound | serum concentration 18 wk / 0 wk | serum concentration 6 wk / 0 wk | serum concentration 12 wk / 0 wk | serum concentration 24 wk / 0 wk
1 | CCCCC/C=C\C/C=C\CCCCCCCCCC(=O)O [dihomo-linoleate (20:2n6), dihomo-linoleate] | 1.03 |  |  | 
2 | CC/C=C\C/C=C\C/C=C\C/C=C\CCCCC(=O)O [stearidonate (18:4n3), stearidonate] |  | 1.03 |  | 
3 | dihomo-linolenate [dihomo-linolenate (20:3n3 or n6)] | 1.36 | 1.14 | 1.37 | 1.03
